Values quoted from earlier work, collected in patent US20200277568A1, “Small Molecule-Induced Method for Directly Reprogramming Human Fibroblasts into Liver Cells” (Transcend Cytotherapy Co.,Ltd, priority 2017, published 2020).

The chains behind the UniProt entries cited, without tags or fusion partners. Where a name states a change or a piece, a line headed by the entry shows the natural chain unless it says otherwise.
UniProt Q96KQ7: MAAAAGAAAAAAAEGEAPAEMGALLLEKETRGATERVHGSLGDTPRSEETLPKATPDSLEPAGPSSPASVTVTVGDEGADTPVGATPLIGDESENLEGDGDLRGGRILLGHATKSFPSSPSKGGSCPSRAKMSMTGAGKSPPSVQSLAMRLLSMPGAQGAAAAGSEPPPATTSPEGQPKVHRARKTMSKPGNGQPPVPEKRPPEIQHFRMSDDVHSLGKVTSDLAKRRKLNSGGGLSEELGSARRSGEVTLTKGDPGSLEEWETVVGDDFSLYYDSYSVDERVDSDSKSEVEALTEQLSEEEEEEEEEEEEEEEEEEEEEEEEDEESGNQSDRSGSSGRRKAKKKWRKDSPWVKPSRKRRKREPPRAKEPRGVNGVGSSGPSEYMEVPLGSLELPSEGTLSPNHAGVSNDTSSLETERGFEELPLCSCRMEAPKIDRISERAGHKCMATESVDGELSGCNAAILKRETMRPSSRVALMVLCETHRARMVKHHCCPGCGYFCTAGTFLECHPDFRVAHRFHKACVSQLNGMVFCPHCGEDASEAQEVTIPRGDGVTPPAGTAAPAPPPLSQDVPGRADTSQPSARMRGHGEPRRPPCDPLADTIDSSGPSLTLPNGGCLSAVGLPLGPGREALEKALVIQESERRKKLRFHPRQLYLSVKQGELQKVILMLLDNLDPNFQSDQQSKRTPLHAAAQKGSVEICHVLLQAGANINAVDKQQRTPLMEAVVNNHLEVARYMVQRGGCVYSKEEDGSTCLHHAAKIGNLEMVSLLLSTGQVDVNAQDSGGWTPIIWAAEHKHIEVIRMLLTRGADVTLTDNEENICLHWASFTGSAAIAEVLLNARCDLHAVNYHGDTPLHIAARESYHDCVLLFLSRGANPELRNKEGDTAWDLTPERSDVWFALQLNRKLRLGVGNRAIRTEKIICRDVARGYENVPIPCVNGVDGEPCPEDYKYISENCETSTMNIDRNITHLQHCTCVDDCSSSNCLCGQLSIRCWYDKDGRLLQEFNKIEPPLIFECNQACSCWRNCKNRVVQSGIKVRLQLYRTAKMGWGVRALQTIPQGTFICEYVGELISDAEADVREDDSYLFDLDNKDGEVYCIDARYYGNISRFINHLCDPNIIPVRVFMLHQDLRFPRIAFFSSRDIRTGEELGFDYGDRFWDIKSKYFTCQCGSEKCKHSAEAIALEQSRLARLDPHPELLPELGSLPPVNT

Target: G9a histone methyltransferase (Homo sapiens, UniProt Q96KQ7)

In the case of `COc1cc2c(NC3CCN(C)CC3)nc(N3CCCN(C)CC3)nc2cc1OCCCN(C)C` [UNC0224], the IC50 is given as 15 nM.
